{
  "source": "PubChem BioAssay AID862",
  "about": "(The Scripps Research Institute Molecular Screening Center, 2007)",
  "note": "Only a part is listed here, and it is no random draw. Activity calls are given as the source filed them.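 The calls were made as follows: active = inhibition above the mean inhibition across all screened compounds plus 3 SD (cut at about 44% in these data); inactive = the rest.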",
  "data": [
    {"assay": "IL-6 driven STAT3 reporter inhibitors, primary screen, U3A cells, luciferase, luminescence, MLSCN library (AID 862);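 also: 0% = DMSO only wells and 100% = 100 µM nifuroxazide control wells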", "settings": "IL-6 STAT3-luciferase reporter, at 5.5 µM, active compounds read high, host cell line lacks STAT1", "values": [
      {"smiles": "CCOC(=O)NC(Sc1ccccc1)C(Cl)(Cl)Cl", "note": "(centres undefined)", "inhibition": "inactive: 7.3%"},
      {"smiles": "c1ccc(-c2nn[nH]n2)c(-c2nn[nH]n2)c1", "inhibition": "inactive: 5.7%"},
      {"smiles": "CCNC(=S)/N=C(\\N)N[N+](=O)[O-]", "inhibition": "inactive: -1.4%"},
      {"smiles": "O=C(NC1CCS(=O)(=O)C1)NP(=S)(Oc1ccccc1)Oc1ccccc1", "note": "(centres undefined)", "inhibition": "inactive: 8.3%"},
      {"smiles": "O=c1c2cc([N+](=O)[O-])ccc2[nH]c2c([N+](=O)[O-])cc([N+](=O)[O-])cc12", "inhibition": "active: 59.5%"},
      {"smiles": "CCC(=O)N1C2C3N(C(=O)CC)C1C1N(C(=O)CC)C(C(N1C(=O)CC)N3C(=O)CC)N2C(=O)CC", "inhibition": "inactive: 6.9%"},
      {"smiles": "CC(=O)NC(SC(=S)N(CC(C)C)CC(C)C)C(Cl)(Cl)Cl", "note": "(centres undefined)", "inhibition": "inactive: -7.3%"},
      {"smiles": "Cc1ccc(OP(=O)(Nc2ccccn2)Oc2ccc(C)cc2)cc1", "inhibition": "inactive: -2.1%"},
      {"smiles": "COC(=O)c1cc2c(s1)N=C(c1ccccc1)N(C)P2(=O)N1CCOCC1", "note": "(centres undefined)", "inhibition": "inactive: -5.7%"},
      {"smiles": "CC(C)(C)C(=O)NC(Sc1ccccc1)C(Cl)(Cl)Cl", "note": "(centres undefined)", "inhibition": "inactive: 2.6%"},
      {"smiles": "CCOc1ccc(C2=NCC(CBr)S2)cc1", "note": "(centres undefined)", "inhibition": "inactive: 8.7%"},
      {"smiles": "O=P1(Nc2nc3ccc(Cl)cc3s2)COc2ccccc2O1", "note": "(centres undefined)", "inhibition": "inactive: 8.1%"},
      {"smiles": "CC(=O)Nc1ccc(Oc2c([N+](=O)[O-])cc([N+](=O)[O-])cc2[N+](=O)[O-])cc1", "inhibition": "inactive: 10.6%"},
      {"smiles": "c1nnnn1CCn1cnnn1", "inhibition": "inactive: 9.3%"},
      {"smiles": "CC(C)C(=O)NC(Sc1ccccc1)C(Cl)(Cl)Cl", "note": "(centres undefined)", "inhibition": "inactive: -5.3%"},
      {"smiles": "O=P(Nc1nccs1)(c1ccccc1)c1ccccc1", "inhibition": "inactive: -1.9%"},
      {"smiles": "O=P(Nc1ccccn1)(c1ccc(Br)cc1)c1ccc(Br)cc1", "inhibition": "inactive: 0.2%"},
      {"smiles": "O=C(OC1CN2CCC1CC2)c1cccc(Cl)c1", "note": "(centres undefined)", "inhibition": "inactive: 5.8%"},
      {"smiles": "C(Cc1nn[nH]n1)Cc1nn[nH]n1", "inhibition": "inactive: 18.7%"},
      {"smiles": "CC(=O)NC(SC(=S)N(C)C)C(Cl)(Cl)Cl", "note": "(centres undefined)", "inhibition": "inactive: 1.4%"},
      {"smiles": "O=[N+]([O-])c1ncn(CCn2ncnc2[N+](=O)[O-])n1", "inhibition": "inactive: 10.2%"},
      {"smiles": "CCc1nc2c(n1)c1c(non1O)c1c2no[n+]1[O-]", "inhibition": "inactive: 17.6%"},
      {"smiles": "O=[N+]([O-])c1cc([N+](=O)[O-])c(CCNc2ccccc2)c([N+](=O)[O-])c1", "inhibition": "inactive: 37.7%"},
      {"smiles": "Cc1ccc(NP(=O)(Oc2ccccc2)Oc2ccccc2)nc1", "inhibition": "inactive: -3.9%"},
      {"smiles": "O=[N+]([O-])c1cccc2n[nH]nc12", "inhibition": "inactive: -5.4%"},
      {"smiles": "CC(=O)N1C2C3N(C(C)=O)C1C1N(C(C)=O)C(C(N1C(C)=O)N3C(C)=O)N2C(C)=O", "inhibition": "inactive: 2.8%"},
      {"smiles": "COc1ccc(C2=NCC(CBr)S2)cc1", "note": "(centres undefined)", "inhibition": "inactive: -3.8%"},
      {"smiles": "CC1CCN(C(=O)Oc2c(Cl)cc(Cl)c3cccnc23)CC1", "inhibition": "inactive: 8.4%"},
      {"smiles": "CN(C)C(=O)OCCc1n(C)cc[n+]1C", "inhibition": "inactive: -3.9%"},
      {"smiles": "CC(C)=N/N=C(\\N)N[N+](=O)[O-]", "inhibition": "inactive: 2.3%"},
      {"smiles": "CCN(/C(=N/P(=O)(N1CCOCC1)N1CCOCC1)N1CCOCC1)c1ccc(OC)cc1", "inhibition": "inactive: 13.2%"},
      {"smiles": "Clc1ccc(Cl)c(NC2=NCC(CBr)S2)c1", "note": "(centres undefined)", "inhibition": "inactive: 11.8%"},
      {"smiles": "CN1CCCC(OC(=O)C(c2ccccc2)c2ccccc2)C1", "note": "(centres undefined)", "inhibition": "inactive: -8.5%"},
      {"smiles": "COc1ccccc1OP(=O)(Nc1ccc(C)cn1)Oc1ccccc1OC", "inhibition": "inactive: -8.4%"},
      {"smiles": "Cc1ccc(N/C(=N/P(=O)(N2CCOCC2)N2CCOCC2)N2CCOCC2)cc1", "inhibition": "inactive: -6.1%"},
      {"smiles": "NC(=O)c1cc([N+](=O)[O-])cc([N+](=O)[O-])c1N", "inhibition": "inactive: 4.9%"},
      {"smiles": "Cc1c2non([O-])c-2c(C)[n+](=O)[n+]1[O-]", "inhibition": "inactive: 6%"},
      {"smiles": "O=C(NC(Sc1ccncn1)C(Cl)(Cl)Cl)c1ccccc1", "note": "(centres undefined)", "inhibition": "inactive: -6.5%"},
      {"smiles": "Oc1ccccc1CNc1ccccn1", "inhibition": "inactive: -4.1%"},
      {"smiles": "CC(C)CC(=O)NC(Sc1ccc(Cl)cc1)C(Cl)(Cl)Cl", "note": "(centres undefined)", "inhibition": "inactive: -7.4%"},
      {"smiles": "CCOP(=O)(Nc1ccccc1)OCC", "inhibition": "inactive: 5.8%"},
      {"smiles": "Cc1cc(SC(NC(=O)c2ccc(F)cc2)C(Cl)(Cl)Cl)ncn1", "note": "(centres undefined)", "inhibition": "inactive: -4.5%"},
      {"smiles": "CCN(N=Nc1nonc1N)c1nonc1N", "inhibition": "inactive: -1.9%"},
      {"smiles": "Cc1ccc2nc3c(c(C)c2c1)CC(C(Cl)Cl)S3", "note": "(centres undefined)", "inhibition": "inactive: 16.7%"},
      {"smiles": "O=[N+]([O-])c1cc([N+](=O)[O-])c(-c2ccn[nH]2)s1", "inhibition": "inactive: 3%"},
      {"smiles": "CCN(CC)C(=S)SC(NC=O)C(Cl)(Cl)Cl", "note": "(centres undefined)", "inhibition": "inactive: 14.7%"},
      {"smiles": "CC(C)NC(=O)NP(=O)(Oc1ccccc1)Oc1ccccc1", "inhibition": "inactive: -3%"},
      {"smiles": "ClCCSc1nnc(-c2cccnc2)o1", "inhibition": "inactive: -3.4%"},
      {"smiles": "COc1ccc2nc(NP(=O)(c3ccccc3)c3ccccc3)sc2c1", "inhibition": "inactive: -3.6%"},
      {"smiles": "Cc1c2c(nc3ccccc13)SC(C(Cl)Cl)C2", "note": "(centres undefined)", "inhibition": "inactive: 28%"},
      {"smiles": "Cc1cc(=O)[nH]c(N[N+](=O)[O-])n1", "inhibition": "inactive: 0%"},
      {"smiles": "O=C(OC1CN2CCC1CC2)C12CC3CC(CC(C3)C1)C2", "note": "(centres undefined)", "inhibition": "inactive: -19.2%"},
      {"smiles": "COc1ccc(N/C(=N/P(=O)(N2CCOCC2)N2CCOCC2)N2CCOCC2)cc1", "inhibition": "inactive: 8.1%"},
      {"smiles": "O=C(COc1ccccc1)OC1CN2CCC1CC2", "note": "(centres undefined)", "inhibition": "inactive: 4.9%"},
      {"smiles": "COP1(=S)c2c(C)nn(CCC#N)c2N=C(c2ccc(F)cc2)N1C", "note": "(centres undefined)", "inhibition": "inactive: 0.7%"},
      {"smiles": "CCC(C)N(CC(C)C)C(=S)SC(NC(C)=O)C(Cl)(Cl)Cl", "note": "(centres undefined)", "inhibition": "inactive: 4.7%"},
      {"smiles": "Cc1cc(SC(NC(=O)c2ccccc2)C(Cl)(Cl)Cl)nc(C(C)C)n1", "note": "(centres undefined)", "inhibition": "inactive: 4.4%"},
      {"smiles": "O=P(Nc1ccccn1)(c1cccc2ccccc12)c1cccc2ccccc12", "inhibition": "inactive: -2.4%"},
      {"smiles": "Cc1cc(SC(NC=O)C(Cl)(Cl)Cl)ncn1", "note": "(centres undefined)", "inhibition": "inactive: -2.1%"},
      {"smiles": "CN(C)C1(CNC(=O)c2ccc(S(C)(=O)=O)cc2)CCCCC1", "inhibition": "inactive: 0.8%"},
      {"smiles": "CC1CCC(C(C)C)C(OP(=O)(Nc2ccccn2)c2ccccc2)C1", "note": "(centres undefined)", "inhibition": "inactive: -3.5%"},
      {"smiles": "Cc1nn(-c2ccccc2)c2c1P(=O)(N1CCOCC1)N(C)C(c1ccccc1)=N2", "note": "(centres undefined)", "inhibition": "inactive: 11.7%"},
      {"smiles": "O=P1(Nc2ccc(Br)cn2)COc2ccccc2OC1", "inhibition": "inactive: 12.9%"},
      {"smiles": "Cc1ccc(OCC(=O)OC2CN3CCC2CC3)cc1", "note": "(centres undefined)", "inhibition": "inactive: -7.7%"},
      {"smiles": "O=P1(Nc2ncccn2)COc2ccccc2OC1", "inhibition": "inactive: 1.4%"},
      {"smiles": "Clc1n[nH]nc1-c1nn[nH][15n]1", "inhibition": "inactive: 4.6%"},
      {"smiles": "O=P1(Nc2ccccn2)COc2ccccc2OC1", "inhibition": "inactive: -3.3%"},
      {"smiles": "CC(C)/C=N\\N=C(\\N)N[N+](=O)[O-]", "inhibition": "inactive: 6.8%"},
      {"smiles": "CC1(CBr)Cn2c(nc3ccccc3c2=O)S1", "note": "(centres undefined)", "inhibition": "inactive: 10.5%"},
      {"smiles": "Cc1cccc(OCC(=O)OC2CN3CCC2CC3)c1", "note": "(centres undefined)", "inhibition": "inactive: 8%"},
      {"smiles": "COc1cc(C(=O)NCC2(N3CCOCC3)CCCCC2)cc(Cl)c1OC(C)C", "inhibition": "inactive: -17.2%"},
      {"smiles": "CCOP(=O)(Nc1cccc2ccccc12)OCC", "inhibition": "inactive: -3.6%"},
      {"smiles": "COc1cc(C2NCCC3(OCCO3)C2(C)C)cc(OC)c1OC", "note": "(centres undefined)", "inhibition": "inactive: 9.7%"},
      {"smiles": "Cc1ccc(NCCc2c([N+](=O)[O-])cc([N+](=O)[O-])cc2[N+](=O)[O-])cc1", "inhibition": "inactive: 16.1%"},
      {"smiles": "O=P(Nc1nccs1)(c1ccccc1)c1nc2ccccc2s1", "note": "(centres undefined)", "inhibition": "inactive: -9.6%"},
      {"smiles": "O=P(Nc1nccs1)(Oc1ccccc1)Oc1ccccc1", "inhibition": "inactive: 24.2%"},
      {"smiles": "CCOP1(=S)c2c(C)nn(CCC#N)c2N=C(c2ccccc2F)N1C", "note": "(centres undefined)", "inhibition": "inactive: -4.1%"},
      {"smiles": "CCOP1(=S)c2c(C)nn(CCC#N)c2N=C(c2ccc(F)cc2)N1C", "note": "(centres undefined)", "inhibition": "inactive: -1.3%"},
      {"smiles": "O=[N+]([O-])c1ccc2c(c1)nnn2O", "inhibition": "inactive: 0.6%"}
    ]}
  ]
}
